Results published in publication PMC5054527, “Mechanism of high affinity inhibition of the human urate transporter URAT1” (Scientific Reports, 2016).

Amino acid sequences for entries named in this document (tags omitted).
UniProt Q96S37, whole entry G444S/V445L/I452V/Y455F: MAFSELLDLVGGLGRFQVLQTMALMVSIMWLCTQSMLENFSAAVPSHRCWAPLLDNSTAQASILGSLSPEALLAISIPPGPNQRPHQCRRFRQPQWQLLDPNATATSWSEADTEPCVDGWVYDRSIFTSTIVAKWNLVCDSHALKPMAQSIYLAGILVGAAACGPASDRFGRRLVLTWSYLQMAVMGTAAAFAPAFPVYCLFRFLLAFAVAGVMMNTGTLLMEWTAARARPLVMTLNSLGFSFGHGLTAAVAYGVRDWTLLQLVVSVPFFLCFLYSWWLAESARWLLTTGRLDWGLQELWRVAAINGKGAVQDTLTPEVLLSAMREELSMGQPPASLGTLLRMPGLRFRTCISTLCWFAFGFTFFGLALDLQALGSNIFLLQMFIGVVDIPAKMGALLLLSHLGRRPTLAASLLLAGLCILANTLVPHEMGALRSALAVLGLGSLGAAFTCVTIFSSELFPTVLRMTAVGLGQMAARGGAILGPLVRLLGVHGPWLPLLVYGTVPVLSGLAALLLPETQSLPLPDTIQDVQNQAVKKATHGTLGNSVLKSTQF

Target: T1, h-r TM10 URAT1 chimera (Homo sapiens, UniProt Q96S37, G444S/I452V/V445L/Y455F)
T1 construct: expressed in transfected cells; host or cells: HEK-293T
Assay: URAT1 uric acid transport activity assay
Format: cell-based, human/rat
Details: MES pH 5.5, 100 μM 14C-uric acid
Source text: hURAT1 (GenBank BC053348.1) and rURAT1 (NCBI NM_001034943.1) genes were purchased from Origene Technologies, Inc. and subcloned into pCMV6/neo using NotI, creating pCMV6/neo-hURAT1 and pCMV6/neo-rURAT1. Mutants were produced by polymerase chain reaction (PCR) or site-directed mutagenesis using the QuikChange Lightning Multi Site-Directed Mutagenesis Kit (Agilent Technologies). […] Detailed methods are provided in Supplementary Methods, and primers are listed in Supplementary Table 1. […] Residues in rURAT1 and hOAT1 that correspond to the residues in hURAT1 were identified from aligned protein sequences (Supplementary Fig. 1)[50].
DNA (10 μg) was mixed with 30 μl of DreamFect Gold (Boca Scientific) in 2 ml OptiMem (Life Technologies). […]
Compounds were serially diluted into assay buffer and added to the cells for 5 minutes prior to addition of radiolabelled uric acid substrate. […] Each treatment was measured in triplicate. […]
Nonlinear regression analyses using GraphPad Prism software were used to calculate the potency of URAT1 inhibitors (IC50 values) from log (inhibitor) versus response - variable slope (four parameters) equations. Statistical significance was assessed using Student’s unpaired t-tests.

Structure (SMILES): O=C(O)CSc1nnc(Br)n1-c1ccc(C2CC2)c2ccccc12 [lesinurad, 2-((5-bromo-4-(4-cyclopropylnaphthalen-1-yl)-4H-1,2,4-triazol-3-yl)thio)acetic acid]
- IC50: 4.4 ± 1.3 µM
